Measured values: paper PMC6274353, “The Blood-Brain Barrier Permeability of Lignans and Malabaricones from the Seeds of Myristica fragrans in the MDCK-pHaMDR Cell Monolayer Model” (Molecules, 2016)

Test system: MDCK-pHaMDR cell monolayer
Test: bidirectional transport across the MDCK-pHaMDR cell monolayer (in vitro BBB model)
Conditions: time-dependency (30–180 min, 100 µM) and concentration-dependency (25–100 µM, 90 min) experiments

- primary transport mechanism: passive diffusion
Compound: C=CCc1cc(OC)c(O[C@@H](C)[C@H](O)c2ccc(O)c(OC)c2)c(OC)c1 [Compound 7, myrislignan]
